Earlier results, collected in paper PMC3837291.

Protein sequences, listed by entry. Tags and fused reporters are not part of them. Residues count along the entry.
UniProt P43896, 56-338: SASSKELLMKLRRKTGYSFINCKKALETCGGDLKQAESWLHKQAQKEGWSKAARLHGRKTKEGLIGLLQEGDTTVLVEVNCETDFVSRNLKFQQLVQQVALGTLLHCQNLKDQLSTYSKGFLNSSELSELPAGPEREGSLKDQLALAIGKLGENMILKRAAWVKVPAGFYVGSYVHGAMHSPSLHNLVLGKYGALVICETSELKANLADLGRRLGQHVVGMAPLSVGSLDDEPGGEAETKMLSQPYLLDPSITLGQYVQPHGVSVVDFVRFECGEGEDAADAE

Target: EF-Tsmt (Bos taurus) (UniProt P43896)

- Kd: 5.5 nM
Substance: EF-Tumt (from UniProt P49410)
